According to PubChem BioAssay (NCI):
The list shows a part of the results, in another mix than the full data. Some structures show a salt or complex split into parts, the way the source records it. Active and inactive are the calls of the source. Rule as the data show it: active = growth inhibition above about 70%; inactive = the rest.

What was measured:
[1] = NCI Yeast Anticancer Drug Screen. Data for the rad50 strain (AID 155);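 also: 0% = growth of vehicle-only cultures of the same strain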; details: S. cerevisiae rad50 strain growth inhibition; at 50.0 µM; active compounds read high
[2] = NCI Yeast Anticancer Drug Screen. Data for the mec2-1 strain (AID 157); details: S. cerevisiae mec2-1 strain, at 50.0 µM, active compounds read high
[3] = NCI Yeast Anticancer Drug Screen. Data for the sgs1 mgt1 strain (AID 161);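 also: 0% = growth of cultures given vehicle only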; details: S. cerevisiae sgs1 mgt1 strain, at 50.0 µM, active compounds read high
[4] = NCI Yeast Anticancer Drug Screen. Data for the cln2 rad14 strain (AID 165);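 also: 0% = growth equal to vehicle treated cultures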; details: S. cerevisiae cln2 rad14 strain, at 50.0 µM, active compounds read high
[5] = NCI Yeast Anticancer Drug Screen. Data for the bub3 strain (AID 167); details: S. cerevisiae bub3 mutant strain, at 50.0 µM, active compounds read high
[6] = NCI Yeast Anticancer Drug Screen. Data for the mlh1 rad18 strain (AID 175); details: S. cerevisiae mlh1 rad18 strain growth inhibition; at 50.0 µM; active compounds read high

Measured: growth inhibition

CN1CCCC(=O)CC1.O=[N+]([O-])c1cc([N+](=O)[O-])c(O)c([N+](=O)[O-])c1
inactive: [1] -2.15% | [2] -10.2% | [3] 31.6% | [4] -8.5% | [5] 15.8% | [6] -10.7%

CN(C)CCC(=O)CCN(C)C.O=[N+]([O-])c1cc([N+](=O)[O-])c(O)c([N+](=O)[O-])c1
inactive: [1] 38% | [2] 17.6% | [3] 35.6% | [4] 31.1% | [5] 7.55% | [6] 60.5%

n1nc(-c2nn[nH]n2)n[nH]1
inactive: [1] 2% | [2] -7.2% | [3] -1.35% | [4] -20.6% | [5] 5.8% | [6] 11.4%

CCCCN=C(N)C(N)=NCCCC.O=[N+]([O-])c1cc([N+](=O)[O-])c(O)c([N+](=O)[O-])c1
inactive: [1] 13.2% | [2] 7.1% | [3] 10.8% | [4] -3.45% | [5] 3.25% | [6] 26.2%

CCCCCCC(C)NCCCO.O=[N+]([O-])c1cc([N+](=O)[O-])c(O)c([N+](=O)[O-])c1
inactive: [1] 34.6% | [2] 0.75% | [3] 31% | [4] -22.9% | [5] 7.25% | [6] 19.4%

[N-]=[N+]=NCc1cn[nH]n1
inactive: [1] -10.7% | [2] -7.05% | [3] 11.4% | [4] -9.1% | [5] -5.15% | [6] 10.7%

N/C(=N\Nc1c([N+](=O)[O-])cc([N+](=O)[O-])cc1[N+](=O)[O-])c1cc([N+](=O)[O-])cc([N+](=O)[O-])c1
inactive: [1] 26.1% | [2] -12.1% | [3] 14.7% | [4] -20.2% | [5] -1.6% | [6] -2.5%

CCN(CC)CCOC(=O)C(O)(c1ccccc1)c1cc(C)cc(C)c1 (stereo not given)
inactive: [1] -2.9% | [2] 8.5% | [3] -5.8% | [4] -14.2% | [5] 3.75% | [6] 1.15%

O=[N+]([O-])c1cc([N+](=O)[O-])c(O)c([N+](=O)[O-])c1
inactive: [1] 0.1% | [2] -18.9% | [3] -4.5% | [4] 11.4% | [5] -2.55% | [6] 12.2%

COP(C)(=O)OC.COP(C)(=O)OC.COP(C)(=O)OC.COP(C)(=O)OC.COP(C)(=O)OC.COP(C)(=O)OC.[Cr+3].[O-][Cl+3]([O-])([O-])O
inactive: [1] 0.5% | [2] 3.45% | [3] -7.15% | [4] -2.95% | [5] -6.45% | [6] 19.5%

NCc1ccccc1-c1ccccc1.O=[N+]([O-])c1cc([N+](=O)[O-])c(O)c([N+](=O)[O-])c1
inactive: [1] 35.5% | [2] 20.8% | [3] 32.4% | [4] 24.1% | [5] -0.45% | [6] 23.9%

CC(C)C(CN(C)C)C(C)C.O=[N+]([O-])c1cc([N+](=O)[O-])c(O)c([N+](=O)[O-])c1
inactive: [1] 14.6% | [2] 3.7% | [3] 0.4% | [4] 9.2% | [5] -2.1% | [6] 5.4%

CCCCc1c(CCC)c(=O)[nH]c2ccccc12.O=[N+]([O-])c1cc([N+](=O)[O-])c(O)c([N+](=O)[O-])c1
inactive: [1] 27% | [2] 10.4% | [3] 58.6% | [4] 17.6% | [5] 15.9% | [6] 22.9%

CN(C)CC1CCCC(CN(C)C)C1OC(=O)C(O)(c1ccccc1)c1ccccc1 (stereo not given)
inactive: [1] -3.1% | [2] 8.45% | [3] -6.4% | [4] -44.5% | [5] -0.1% | [6] 13.8%

CCN(CC)CCCl
inactive: [1] 46.6% | [2] -8.35% | [3] 5.95% | [4] 19% | [5] -21.2% | [6] 40%

CC(CCO)NC1CCCC1.O=[N+]([O-])c1cc([N+](=O)[O-])c(O)c([N+](=O)[O-])c1
inactive: [1] 39% | [2] -3.3% | [3] 28.8% | [4] -2.55% | [5] 0.05% | [6] 13.8%

O=[N+]([O-])c1cc([N+](=O)[O-])c(O)c([N+](=O)[O-])c1.OCCNCCc1ccccc1
inactive: [1] 43.2% | [2] 5.85% | [3] 26.6% | [4] -0.65% | [5] 4.4% | [6] 16.2%

CN1CCCC1.O=[N+]([O-])c1cc([N+](=O)[O-])c(O)c([N+](=O)[O-])c1
inactive: [1] 3.9% | [2] -2.9% | [3] 14.4% | [4] 7.85% | [5] 8.6% | [6] 11.7%

CN[N+](=O)[O-]
inactive: [1] -3.95% | [2] 0.65% | [3] -20.4% | [4] 19.2% | [5] 15% | [6] -2.6%

O=[N+]([O-])c1cc([N+](=O)[O-])c(O)c([N+](=O)[O-])c1.c1ccc2c(c1)ccc1ccccc12
inactive: [1] 9.15% | [2] -4.2% | [3] 23.1% | [4] -4.4% | [5] -8% | [6] 14.8%

CC(C)NCCO.O=[N+]([O-])c1cc([N+](=O)[O-])c(O)c([N+](=O)[O-])c1
inactive: [1] -8.55% | [2] 22.1% | [3] 12.8% | [4] 14.9% | [5] 6.3% | [6] -0.55%

O=[N+]([O-])c1nc(-c2nc([N+](=O)[O-])c([N+](=O)[O-])[nH]2)[nH]c1[N+](=O)[O-]
inactive: [1] 20.2% | [2] 4.55% | [3] 24.4% | [4] 4.3% | [5] 11.8% | [6] 22.6%

CN(C)P(=O)(Cl)Cl
inactive: [1] 2.7% | [2] -14.4% | [3] -2.4% | [4] -50% | [5] 7.4% | [6] -1.45%

CCCC[N+](CCCC)(CCCC)CCCC.O=[N+]([O-])c1cc([N+](=O)[O-])c([O-])c([N+](=O)[O-])c1
inactive: [1] -16.6% | [2] -0.75% | [3] 5.4% | [4] 17.4% | [5] -1% | [6] 6.15%

CCN(CC)CCOC(=O)C(O)(c1ccccc1)c1cccc(C)c1C (stereo not given)
inactive: [1] -14.5% | [2] 3.75% | [3] -8.75% | [4] -32.8% | [5] -2.3% | [6] 4%

COC(=O)C(OC(C)=O)C1OC(n2cnc3c(N)ncnc32)C(OC(C)=O)C1OC(C)=O.O=[N+]([O-])c1cc([N+](=O)[O-])c(O)c([N+](=O)[O-])c1 (stereo not given)
inactive: [1] 30.8% | [2] 11.3% | [3] 27.5% | [4] 5.9% | [5] -0.25% | [6] 40.5%

CC(CCl)N1CCCCCC1C.O=[N+]([O-])c1cc([N+](=O)[O-])c(O)c([N+](=O)[O-])c1
inactive: [1] 13.8% | [2] 0.75% | [3] -6.15% | [4] -12.2% | [5] 0.1% | [6] 20.3%

CCC(O)(CN1CCCCC1)C1Cc2ccccc2O1.O=[N+]([O-])c1cc([N+](=O)[O-])c(O)c([N+](=O)[O-])c1 (stereo not given)
inactive: [1] 6.05% | [2] 24.4% | [3] 43.4% | [4] 5.5% | [5] 14.3% | [6] 45.5%

CCCC[PH+](CCCC)CCCC.CS(=O)[O-].[C-]#[O+].[Fe+6].[c-]1[c-][c-][cH-][c-]1
inactive: [1] 23.1% | [2] 18.1% | [3] 17.9% | [4] 6.15% | [5] 2.55% | [6] 8.2%

CCOP(C)(=O)OC(C(F)(F)F)C(F)(F)F (stereo not given)
inactive: [1] -66.2% | [2] 2.9% | [3] -29% | [4] 8.75% | [5] 24.4% | [6] -35%

CCOP(=O)(O)CC.[Cr]
inactive: [1] -3.35% | [2] -21.4% | [3] 0.05% | [4] -49.3% | [5] -19.1% | [6] -6.7%

CP(=S)(Nc1ccccc1)Nc1ccccc1
inactive: [1] 12.8% | [2] 1.4% | [3] 1.2% | [4] 14.4% | [5] 1.2% | [6] -0.4%

Nc1cccc(Cl)c1.O=[N+]([O-])c1cc([N+](=O)[O-])c(O)c([N+](=O)[O-])c1
inactive: [1] 2.4% | [2] 17.1% | [3] 11.1% | [4] -38.5% | [5] 38.2% | [6] 16.9%

N.N.N.N.N.[Cl-].[Co+3].n1n[n-]c(-c2nn[n-]n2)n1
inactive: [1] -0.45% | [2] -2.05% | [3] -0.15% | [4] 21.7% | [5] -3.1% | [6] -3.1%

CC1C(C)[N+]1(C)C.O=[N+]([O-])c1cc([N+](=O)[O-])c(S(=O)(=O)[O-])c([N+](=O)[O-])c1
inactive: [1] 27.6% | [2] 13.7% | [3] 54.9% | [4] 27.4% | [5] 22.9% | [6] 13.2%
